Test [1] can be described thus: Inhibition of FGFR.
Test [2] can be described thus: Inhibition of PDGFR.
Test [3] addresses Proto-oncogene tyrosine-protein kinase Src (Homo sapiens) (UniProt P12931). The experiment in a line: Inhibition of cSrc.

With `CN1CCN(CCCNc2ncc3cc(-c4c(Cl)cccc4Cl)c(NC(=O)NCc4ccccc4)nc3n2)CC1`, the log(10^6/IC50) came to 3.9 in test [1], 2.7 in test [2] and 4.52 in test [3].
As to `COc1ccc(NC(=O)Nc2nc3nc(NCCCN4CCN(C)CC4)ncc3cc2-c2c(Cl)cccc2Cl)cc1`, the log(10^6/IC50) was found to be 3.86 in test [1] and 3.1 in test [2].

These data come from ChEMBL document CHEMBL1143173, “2D Autocorrelation, CoMFA, and CoMSIA modeling of protein tyrosine kinases' inhibition by substituted pyrido[2,3-d]pyrimidine derivatives” (Bioorg Med Chem, 2008).
